Experimental data: patent US20030236294A1, “Compounds and methods for inducing apoptosis in proliferating cells” (priority 2002, published 2003)

Tested on: PC-3 cells
Assay: Apoptosis induction in PC-3 cells (T1/2, time for 50% apoptotic death; cell viability / Cell Death Detection ELISA)
Conditions: for T½ (h) 50 μM: time required for eliciting 50% apoptotic death, Table 2; for T1/2 at 50 μM: PC-3 cells

| SMILES | T½ (h) 50 μM | T1/2 at 50 μM |
| --- | --- | --- |
| Nc1ccc(-c2cc(C(F)(F)F)nn2-c2ccc(S(N)(=O)=O)cc2)cc1 | >100 h |  |
| NS(=O)(=O)c1ccc(-n2nc(C(F)(F)F)cc2-c2ccc(Cl)cc2Cl)cc1 [Example 12] | 2 h | 2 h |
| NS(=O)(=O)c1ccc(-n2nc(C(F)(F)F)cc2-c2ccccc2Cl)cc1 [Example 13] | 4 h |  |
| NS(=O)(=O)c1ccc(-n2nc(C(F)(F)F)cc2C2=CCCCC2)cc1 | >100 h |  |
| NS(=O)(=O)c1ccc(-n2nc(C(F)(F)F)cc2-c2ccc(O)cc2)cc1 | >100 h |  |
| NS(=O)(=O)c1ccc(-n2nc(C(F)(F)F)cc2-c2ccc(F)cc2)cc1 | >100 h |  |
| Cc1ccc(-c2cc(C(F)(F)F)nn2-c2ccc(S(N)(=O)=O)cc2)c(C)c1 [Example 9] | 2 h |  |
| NS(=O)(=O)c1ccc(-n2nc(C(F)(F)F)cc2-c2ccc(Cl)cc2)cc1 [1a] | 3 h |  |
| NS(=O)(=O)c1ccc(-n2nc(C(F)(F)F)cc2-c2ccc(Cl)c(Cl)c2)cc1 | 1.5 h | 1.5 h |
| NS(=O)(=O)c1ccc(-n2nc(C(F)(F)F)cc2-c2cc(Cl)ccc2Cl)cc1 [Example 5] | 3 h |  |
| NS(=O)(=O)c1ccc(-n2nc(C(F)(F)F)cc2-c2ccc(C(F)(F)F)cc2)cc1 | 3 h |  |
| COc1ccc(-c2cc(C(F)(F)F)nn2-c2ccc(S(N)(=O)=O)cc2)cc1 | >100 h |  |
| NS(=O)(=O)c1ccc(-n2nc(C(F)(F)F)cc2-c2ccc([N+](=O)[O-])cc2)cc1 | >100 h |  |
